Assay [1] has as its system Monocyte chemoattractant protein-1 (MCP-1) from brain homogenate. Briefly: CNS study, MCP-1 from brain homogenate, alcohol 5 days. The class given is in vivo, Wistar albino rats. To be noted: Pro: Protection (%), rats, alcohol 5 Day.
For assay [2], the system named is acetylcholinesterase activity of brain homogenate. The conditions noted are these: Hangover study, 1 Day alcohol; ingredient amounts in mass concentration (%).
The test system of a further assay is Interferon gamma (IFN-γ). The assay can be described thus: CNS/immunology study, serum IFN-gamma, alcohol 5 days. To be noted: Pro: Protection (%), rats, alcohol 5 Day. It is filed as in vivo, Wistar albino rats. The text has this: Distilled ethanol was obtained from Bengal Chemicals, West Bengal, India. Biochemical kits like AST, ALT, ALP and total protein were obtained from Span Diagnostics Ltd. Surat, India. Rat IL-12 ELISA kit (Elabscience Biotechnology Co. Ltd, WuHan, P.R.C.), Rat CRP ELISA kit (BD Biosciences, USA), Rat IFN-gamma ELISA kit (Biolegend, San Diego, Calif.) Rat MCP-1 ELISA kit (Elabscience Biotechnology Co. Ltd, WuHan, P.R.C.). All the chemicals used in the present study were of analytical grade and obtained from the following companies: Sigma (St. Louis, Mo., USA), Merck (Mumbai, India), S D fine chemicals (Mumbai, India) and Qualigen (Mumbai, India).
(§1) For hangover, 1 day immunology parameter were considered and for CNS, 5 days immunology parameter were considered.

Assay [3] has as its system interleukin-12 (IL-12) from brain homogenate. The assay can be described thus: CNS study, IL-12 from brain homogenate, alcohol 5 days. The class given is in vivo, Wistar albino rats. To be noted: Pro: Protection (%), rats, alcohol 5 Day.
Assay [4] relates to serum C-reactive protein (CRP). The assay can be described thus: CNS/immunology study, serum CRP, alcohol 5 days. It is filed as in vivo, Wistar albino rats. To be noted: Pro: Protection (%), rats, alcohol 5 Day.
Excerpt: as §1

In a further assay the test system is interleukin-12 (IL-12). The assay can be described thus: Hangover study, serum IL-12, alcohol 1 day. It is filed as in vivo, Wistar albino rats. Also on record: concentration or dose not given beside the values. To be noted: 1 Day alcohol.
Excerpt: as §1

The test system of assay [5] is interleukin-12 (IL-12) from brain homogenate. The assay can be described thus: Hangover study, IL-12 from brain homogenate, alcohol 1 day. The class given is in vivo, Wistar albino rats. Details: concentration or dose not given beside the values. The conditions noted are these: 1 Day alcohol.
The test system of assay [6] is Monocyte chemoattractant protein-1 (MCP-1) from brain homogenate. The assay can be described thus: Hangover study, MCP-1 from brain homogenate, alcohol 1 day. It is filed as in vivo, Wistar albino rats. To be noted: 1 Day alcohol.

Consider `C[C@H](N)C(=O)N[C@@H](CCC(N)=O)C(=O)O` [1 DP, L-Ala-L-Gln], for which the “Brain MCP-1 Pro” value in assay [1] is listed as 11.28%. In addition, the “ACHe Pro (Protection)” value in assay [2] came to 19.76%.

As for `C[C@H](N)C(=O)N[C@@H](CCC(N)=O)C(=O)O` [1.5 DP, L-Ala-L-Gln], the “IFN-Gamma Pro” value in the assay with Interferon gamma (IFN-γ) is 12.82%. Also, the “Brain IL12 Pro” value in assay [3] turned out to be 15.94%. Also, in assay [1], the “Brain MCP-1 Pro” value is 18.23%.

As to `C[C@H](N)C(=O)N[C@@H](CCC(N)=O)C(=O)O` [1.25 DP, L-Ala-L-Gln], in assay [4], the “CRP Pro” value was 15.22%. Besides, in assay [1], the “Brain MCP-1 Pro” value is given as 17.21%. Moreover, in the assay with interleukin-12 (IL-12), the “IL12 Pro (Protection)” value stood at 14.95%.

`C[C@H](N)C(=O)N[C@@H](CCC(N)=O)C(=O)O` [2.0 DP, L-Ala-L-Gln]: in assay [3], the “Brain IL12 Pro” value turned out to be 25.08%.

Regarding `C[C@H](N)C(=O)N[C@@H](CCC(N)=O)C(=O)O` [3 DP, L-Ala-L-Gln], the “Brain MCP-1 Pro” value in assay [1] was found to be 36.58%. Moreover, the “Brain IL12 Pro (Protection)” value in assay [5] is given as 35.21%. Besides, the “Brain MCP-1 Pro (Protection)” value in assay [6] amounted to 33.29%.

(Values after patent US10456359B2, “Synergistic beverage composition” (Harsha Chigurupati, priority 2015, dated 2019).)
